Tests used:
human CD4+ T cells = experiment: Human T cell activation assay (CFSE proliferation, cytokine ELISA); type: cell-based; settings: plate-bound anti-CD3 3 μg/ml
Description: (§1) (FIG. 5A) DD1α inhibits the activation of human CD4+ T cells and CD8+ T cells. Enriched human CD4+ T cells and CD8+ T cells were stained with CFSE (1 μM) and stimulated with plate-bound anti-CD3 antibody (3 μg/ml) together with 2, 5, or 10 μg/ml of DD1α-Ig proteins or control Ig proteins. The proliferations of CD4+ T or CD8+ T cells were determined by the percentages of CFSE-labeled CD4+ T or CD8+ T cells at the 72-hour culture. The levels of cytokines IFN-γ and TNF-α in culture supernatant were analyzed by ELISA at the 48-hour culture. (FIG. 5B) DD1α-mediated inhibition of T cell activation is modulated by α-PD1 antibodies. […] The proliferation and cytokine production of CD4+ T cells were determined as FIG. 5A. […] The proliferations of CD4+ T cells were determined by percentage of CFSE-diluted CD4+ cells on day 3. The levels of cytokines IFN-γ and IL-2 in culture supernatant were analyzed by ELISA on day 2. […] Development of Foxp3+ iTreg cells was assessed by flow cytometric analysis of Foxp3 expression after stimulation with anti-CD3 (5 μg/ml) and anti-CD28 (2 μg/ml) plus the indicated concentrations of TGF-β together with 10 μg/ml of control Ig, DD1α-Ig or PD-L1-Ig for 3 days. […]

Protein sequences, listed by entry. Tags and fused reporters are not part of them. Residues count along the entry.
UniProt Q15116, 25-288: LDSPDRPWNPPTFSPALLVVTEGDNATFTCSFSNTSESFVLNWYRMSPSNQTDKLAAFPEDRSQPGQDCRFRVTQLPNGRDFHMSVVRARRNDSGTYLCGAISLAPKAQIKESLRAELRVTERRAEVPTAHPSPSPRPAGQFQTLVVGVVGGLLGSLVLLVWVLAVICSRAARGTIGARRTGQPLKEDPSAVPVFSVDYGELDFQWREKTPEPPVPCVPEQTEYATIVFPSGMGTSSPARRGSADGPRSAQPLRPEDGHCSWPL

naïve CD4+CD62L+ T cells = experiment: iTreg cell development assay; type: cell-based, mouse; settings: in the presence of TGF-β
Description: as §1

DD1α = experiment: Ig fusion protein staining of 293T transfectants (flow cytometry); type: binding, human; settings: cell surface staining
Description: (§2) The bound Ig fusion proteins were detected with anti-Ig-APC. Empty vector (pcDNA3.1)-transfected cells stained with Ig proteins are shown as a negative control (gray filled) and other staining is shown as black open. […] Purified CD4+ T cells from Wt and DD1α−/− mice were assayed for binding to Ig fused DD1α or PD1 proteins. […] The bound Ig fusion proteins were detected by anti-Ig-APC. Binding amounts were determined by percentage of APC positive cells compared to control Ig protein-bound cells. […] The bead bound proteins were eluted and determined by western blot analysis using anti-HA antibody (asterisks). […] The bead bound proteins were eluted and detected by western blot analysis with anti-DD1α or anti-PD1 antibody (asterisk). […] MCF7 cells were treated by Nutlin-3 (10 μM) for 1 to 3 days. MCF7 cells were transfected with control siRNA or p53 siRNA for 24 hours and treated with CPT (500 nM) or DMSO (control) for 1 and 2 days. The levels of indicated proteins were analyzed by western blot analysis. Total RNAs from control siRNA or p53 siRNA transfected MCF7 cells were assessed for mRNA levels of PD1 or PD-L1 by real-time quantitative PCR.

PD-1 = target: T1, PD-1 (Homo sapiens, UniProt Q15116); experiment: as above; type: binding; settings: cell surface staining
T1 construct: full length human PD-1 and Tim3 cDNA (Sino biological) were cloned into pcDNA3.1(−) tagged with HA at C-terminus; host or cells: HEK293T
Description: as §2

TIM-3 = target: T2, TIM-3 (Homo sapiens, UniProt Q8TDQ0); experiment: as above; type: binding; settings: cell surface staining
T2 construct: full length human PD-1 and Tim3 cDNA (Sino biological) were cloned into pcDNA3.1(−) tagged with HA at C-terminus; host or cells: HEK293T
Description: as §2

PD-L1-Ig: Recombinant human or mouse PD-L1-Ig fusion protein from R&D Systems [reference compound]
proliferation of human CD4+ T cells (human CD4+ T cells; Ig control 92.2%): 48.5% | inhibition of anti-CD3-stimulated human CD4+ T cell proliferation (human CD4+ T cells; relative to Ig control (92.2% proliferation)): ~44% | iTreg cell development (naïve CD4+CD62L+ T cells): as did PD-L1-Ig | binding to DD1α-transfected 293T cells (DD1α): not to DD1α or TIM-3 transfectants | binding to PD-1-transfected 293T cells (PD-1): bound to PD-1 | binding to TIM-3 transfectants (TIM-3): not to DD1α or TIM-3 transfectants

Reference: US20170184604A1, “DD1ALPHA RECEPTOR AND USES THEREOF IN IMMUNE DISORDERS” (THE GENERAL HOSPITAL CORPORATION, priority 2014, published 2017)
